Target: T1, MCM7 with 6-His tag in combination with a triple FLAG tag (human, UniProt P33993 1-719)
T1 construct: MCM7; The methods describe one MCM7 baculovirus with both tags; also called FLAG-MCM7; FLAG-tagged MCM7; source: High Five insect cells, baculovirus, in lysate; not shown: His6, N-terminal, kept; triple FLAG, N-terminal, kept
Assay: co-sedimentation; MCM-BP-MCM pairs co-expressed in insect cells and isolated on affinity resin; 150-200 µg on a 12 ml 15-35% glycerol gradient, 20 mM Tris-HCl pH 7.5, 100 mM NaCl, 0.1 mM EDTA, 2 mM DTT; 34,000 rpm SW41, 16 hours, 4°C; silver staining
Details: both partners purified

By UniProt entry, the sequences of proteins in these tests, tags left out.
UniProt P33993, whole entry: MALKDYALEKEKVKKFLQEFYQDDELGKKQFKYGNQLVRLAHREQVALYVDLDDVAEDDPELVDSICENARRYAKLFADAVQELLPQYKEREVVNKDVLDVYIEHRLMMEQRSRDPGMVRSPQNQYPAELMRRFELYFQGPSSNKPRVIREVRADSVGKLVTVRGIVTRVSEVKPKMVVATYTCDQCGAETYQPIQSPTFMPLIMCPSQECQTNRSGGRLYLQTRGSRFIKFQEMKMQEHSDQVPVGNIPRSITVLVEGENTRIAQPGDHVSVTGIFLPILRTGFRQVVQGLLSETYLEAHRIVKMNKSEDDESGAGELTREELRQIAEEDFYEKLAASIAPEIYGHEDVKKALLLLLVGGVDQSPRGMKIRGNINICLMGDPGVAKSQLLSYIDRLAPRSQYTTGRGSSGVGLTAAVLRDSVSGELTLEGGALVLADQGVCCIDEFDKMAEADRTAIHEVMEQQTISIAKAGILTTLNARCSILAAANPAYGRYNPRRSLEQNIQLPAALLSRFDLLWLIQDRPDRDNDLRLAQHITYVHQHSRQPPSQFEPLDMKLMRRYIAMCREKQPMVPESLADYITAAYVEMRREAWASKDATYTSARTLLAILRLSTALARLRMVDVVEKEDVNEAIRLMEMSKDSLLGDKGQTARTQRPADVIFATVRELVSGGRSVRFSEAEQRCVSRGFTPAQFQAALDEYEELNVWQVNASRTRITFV

B1: MCM-BP with no tags (natural protein, human, UniProt Q9BTE3 1-642, looked up)
chain: MPCGEDWLSHPLGIVQGFFAQNGVNPDWEKKVIEYFKEKLKENNAPKWVPSLNEVPLHYLKPNSFVKFRCMIQDMFDPEFYMGVYETVNQNTKAHVLHFGKYRDVAECGPQQELDLNSPRNTTLERQTFYCVPVPGESTWVKEAYVNANQARVSPSTSYTPSRHKRSYEDDDDMDLQPNKQKDQHAGARQAGSVGGLQWCGEPKRLETEASTGQQLNSLNLSSPFDLNFPLPGEKGPACLVKVYEDWDCFKVNDILELYGILSVDPVLSILNNDERDASALLDPMECTDTAEEQRVHSPPASLVPRIHVILAQKLQHINPLLPACLNKEESKTCKFVSSFMSELSPVRAELLGFLTHALLGDSLAAEYLILHLISTVYTRRDVLPLGKFTVNLSGCPRNSTFTEHLYRIIQHLVPASFRLQMTIENMNHLKFIPHKDYTANRLVSGLLQLPSNTSLVIDETLLEQGQLDTPGVHNVTALSNLITWQKVDYDFSYHQMEFPCNINVFITSEGRSLLPADCQIHLQPQLIPPNMEEYMNSLLSAVLPSVLNKFRIYLTLLRFLEYSISDEITKAVEDDFVEMRKNDPQSITADDLHQLLVVARCLSLSAGQTTLSRERWLRAKQLESLRRTRLQQQKCVNGNEL
notes: MCM-BP, human; made from pfastBacHT.MCM-BP by excising the 6-His tag; also called untagged MCM-BP; nontagged MCM-BP; source: High Five insect cells, baculovirus, co-expressed, in lysate
B1: binds.
